Experimental data as given in publication PMC6798786 (Brain Communications, 2019).

Sequences of proteins named here, by UniProt entry; tags and fusion partners are left off. Residues count along the entry.
UniProt P28335, 33-458 limits assumed: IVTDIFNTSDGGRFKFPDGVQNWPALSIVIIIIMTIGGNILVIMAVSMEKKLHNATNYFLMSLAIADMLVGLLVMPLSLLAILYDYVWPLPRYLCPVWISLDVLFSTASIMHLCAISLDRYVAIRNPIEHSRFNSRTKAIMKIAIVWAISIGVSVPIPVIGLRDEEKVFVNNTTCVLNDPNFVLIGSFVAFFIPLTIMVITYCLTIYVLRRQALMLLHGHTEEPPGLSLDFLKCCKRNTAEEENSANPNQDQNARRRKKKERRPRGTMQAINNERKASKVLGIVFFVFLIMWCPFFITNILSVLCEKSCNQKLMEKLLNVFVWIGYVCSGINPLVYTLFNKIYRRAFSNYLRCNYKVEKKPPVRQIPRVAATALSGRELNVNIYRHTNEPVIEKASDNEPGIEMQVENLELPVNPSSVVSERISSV
UniProt P41595, whole entry: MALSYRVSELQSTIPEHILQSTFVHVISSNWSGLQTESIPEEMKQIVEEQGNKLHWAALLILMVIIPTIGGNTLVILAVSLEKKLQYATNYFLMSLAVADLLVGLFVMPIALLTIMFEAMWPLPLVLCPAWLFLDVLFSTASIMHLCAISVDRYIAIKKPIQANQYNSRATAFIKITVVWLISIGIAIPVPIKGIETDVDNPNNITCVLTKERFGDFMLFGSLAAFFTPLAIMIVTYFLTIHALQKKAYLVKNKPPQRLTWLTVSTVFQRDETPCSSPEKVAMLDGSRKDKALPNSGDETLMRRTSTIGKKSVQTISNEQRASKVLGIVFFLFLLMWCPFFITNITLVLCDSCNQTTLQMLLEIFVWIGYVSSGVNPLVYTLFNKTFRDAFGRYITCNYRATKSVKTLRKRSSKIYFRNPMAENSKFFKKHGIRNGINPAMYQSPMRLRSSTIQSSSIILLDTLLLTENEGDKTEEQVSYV
UniProt P28223, whole entry: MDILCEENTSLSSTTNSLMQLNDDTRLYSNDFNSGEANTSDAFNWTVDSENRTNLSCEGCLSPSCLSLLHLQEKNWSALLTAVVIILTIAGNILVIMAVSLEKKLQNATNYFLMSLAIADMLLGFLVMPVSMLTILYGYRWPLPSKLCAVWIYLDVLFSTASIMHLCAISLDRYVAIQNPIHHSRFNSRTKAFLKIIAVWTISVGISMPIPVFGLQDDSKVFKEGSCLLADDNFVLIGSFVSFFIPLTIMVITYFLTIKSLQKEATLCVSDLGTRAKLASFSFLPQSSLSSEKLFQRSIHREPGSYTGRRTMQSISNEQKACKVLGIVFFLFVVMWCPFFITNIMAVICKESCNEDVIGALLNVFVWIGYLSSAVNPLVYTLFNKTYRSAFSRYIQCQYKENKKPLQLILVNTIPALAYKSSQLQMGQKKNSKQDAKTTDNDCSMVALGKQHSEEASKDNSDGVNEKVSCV

Key:
[1] = target: human 5-HT2CR (Homo sapiens, UniProt P28335); assay: radioligand binding (NIMH PDSP); details: read-out: Ki 5-HT2CR; recombinant, stably expressed human receptor; clemizole analogues
[2] = target: human 5-HT2BR (Homo sapiens, UniProt P41595); assay: radioligand binding (NIMH PDSP); details: read-out: Ki 5-HT2BR; recombinant, stably expressed human receptor; clemizole analogues
[3] = target: human 5-HT2AR (Homo sapiens, UniProt P28223); assay: radioligand binding (NIMH PDSP); details: read-out: Ki 5-HT2AR; recombinant, stably expressed human receptor; clemizole analogues
[4] = test system: human 5-HT2R; assay: radioligand binding (NIMH PDSP), any 5-HT2R subtype; details: 5-HT2AR, 5-HT2BR, 5-HT2CR

Which results are given for `N#Cc1cccc(Cn2c(CN3CCCC3)nc3ccccc32)c1`?
Ki [1]: > 10 µM; Ki [2]: > 10 µM; Ki [3]: > 10 µM; binding to any human 5-HT2R [4]: no significant binding
